Results published in ChEMBL document CHEMBL1155229, “Physical binding pocket induction for affinity prediction” (J Med Chem, 2009).

Amino acid sequences for entries named in this document (tags omitted).
UniProt P08908, whole entry: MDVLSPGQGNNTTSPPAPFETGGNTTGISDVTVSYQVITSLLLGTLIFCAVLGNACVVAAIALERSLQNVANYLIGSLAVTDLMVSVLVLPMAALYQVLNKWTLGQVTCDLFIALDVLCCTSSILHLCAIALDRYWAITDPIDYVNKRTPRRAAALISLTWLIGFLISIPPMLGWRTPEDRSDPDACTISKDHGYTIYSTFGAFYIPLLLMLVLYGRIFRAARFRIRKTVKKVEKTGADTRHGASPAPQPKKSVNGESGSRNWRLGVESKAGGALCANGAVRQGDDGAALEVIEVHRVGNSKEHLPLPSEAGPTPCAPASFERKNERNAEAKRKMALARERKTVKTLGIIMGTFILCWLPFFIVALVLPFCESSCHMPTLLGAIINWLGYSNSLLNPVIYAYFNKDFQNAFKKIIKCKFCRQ

Molecular target: 5-hydroxytryptamine receptor 1A (Homo sapiens, UniProt P08908)
Test: Binding affinity to 5HT1A receptor

Kd [nM] | Structure (SMILES)
398 | CNS(=O)(=O)Cc1ccc2[nH]cc(CCN(C)C)c2c1
39.8 | COC(=O)[C@H]1[C@H]2C[C@H]3c4[nH]c5ccccc5c4CCN3C[C@H]2CC[C@@H]1O [RAUWOLSCINE]
